{"source": "paper PMC5093939", "about": "“Teicoplanin-based antimicrobial therapy in Staphylococcus aureus bone and joint infection: tolerance, efficacy and experience with subcutaneous administration” (BMC Infectious Diseases, 2016)", "experiment": "Trough teicoplanin plasmatic levels (Cmin) in the first 14 days of treatment", "conditions": "5.7 mg/kg/day after loading dose of 5 injections 12 h apart", "description": "Patients diagnosed with staphylococcal BJI were identified by cross-referencing the prospective maintained databases of the regional referral center for BJI and the bacteriology laboratory, which list exhaustively all strains isolated from osteoarticular samples since 2001. Patients with diabetic foot- and decubitus ulcer-related BJI were excluded, as they require a specific management. If patients presented more than one osteoarticular infected site, they were considered as independent events for cohort description and outcome analysis, but pooled for tolerance and pharmacologic evaluation. For each patient, data were collected from medical records, nursing charts and biological software in an anonymous standardized case report form.\nA Cmin >15 mg/L was taken as an acceptable therapeutic target. Patients with a Cmin >25 mg/L were considered as overexposure.\nFor intravenous (IV) administration, each dose was diluted in 100 mL of isotonic saline solution and administrated over a 30-min period. For subcutaneous (SC) injections, each dose was diluted in 50 mL of isotonic saline solution and delivered by a nurse during a 30- to 60-min gravity infusion using a butterfly disposable needle. […]", "data": [{"substance": "teicoplanin", "values": [{"measurement": "Patients whose first trough level (Cmin) reached the therapeutic target (15 mg/L)", "value": 26, "unit": "%"}]}]}
